TDP1 cell noCPT – qHTS for Inhibitors of human tyrosyl-DNA phosphodiesterase 1 (TDP1): qHTS in cells in absence of CPT | Potency, µM (highest dose often 46.2 µM), for inactives: at the top dose activity change, negative = growth inhibition, actives largely listed as inhibitors | AID 686978, 2013 | 420,000 compounds, 15% hits | DT40 Tdp1-/- hTDP1 cells, no CPT, ATP luminescence, 48 h; note: potency is the fitted concentration of half-maximal effect; % is set by controls: 0 for no effect and ±100 for the full control effect; nearly all actives have a fitted effect of over 55% in size
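Growth kinetics read by CellTiter-Glo luminescence after ≥48 hr at 37 °C. Cells: DT40 Tdp1-/- stably carrying human TDP1, 400 per well, compound exposure in the absence of CPT (DMSO vehicle).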
TDP1 cell CPT – growth inhibition of DT40 Tdp1-/-;hTDP1 cells with camptothecin (screen for TDP1 inhibitors) | chicken DT40 Tdp1-/-;hTDP1 cells + 20 nM CPT, ATP luminescence, 48 h | 420,000 compounds, 12% hits | Potency, µM (doses to about 46.2 µM), inactives show top-dose activity change, negative = growth inhibition, actives largely listed as inhibitors | AID 686979; note: potency is the fitted concentration of half-maximal effect; % is set by controls: 0 for no effect and ±100 for the full control effect; nearly all actives have a fitted effect of over 55% in size
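Chicken DT40 Tdp1-/- cells complemented with human TDP1, 400 cells/well, exposed to compounds plus 20 nM camptothecin for at least 48 h at 37 C; viability read as ATP content by CellTiter-Glo luminescence.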
uPA generation – inhibitors of cell surface uPA generation | Potency, µM (top dose mostly 38.3 µM), inactives show at the top dose activity change, negative = inhibition, hits mostly inhibitors | cell surface uPA generation assay, qHTS | AID 540303 | 330,000 compounds, 0.31% hits; active = well fitted inhibition curve with a large enough effect; inconclusive = small, poorly fitted or top-dose-only effect; inactive = no such curve, though single readings can be large or run the other way; tested in mouse RAW 264.7 cells; note: potency is the fitted concentration of half-maximal effect; % is set by controls: 0 for no effect and ±100 for the full control effect; nearly all actives have a fitted effect of over 55% in size
miR-21 reporter – miR-21 reporter, rising signal; HeLa miR-21 FLuc reporter, luciferase, 48 h; Potency, µM (titrated, usually from 38.3 µM), for the others: at the top dose reporter change, positive = more light; 340,000 tested, under 10 active; AID 2288; active = well fitted rising curve with a large enough effect; inconclusive = small, poorly fitted or top-dose-only effect; inactive = no such curve, though single readings can be large or run the other way;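 also: % of control where 0% means no effect; miR-21 action dims this reporter so a rising signal means less miR-21 action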
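HeLa miR-21-FLuc reporter line, endogenous miR-21; 2000 cells/well in DMEM/10% FBS; compound titration up to ~40uM final, 48 h, 37 degree Celsius; luciferase detection reagent, 15 min lysis, CCD luminescence.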
TDP1 inh – inhibitors of human tyrosyl-DNA phosphodiesterase TDP1 | Q9NUW8 | recombinant TDP1, AlphaScreen DNA substrate cleavage | Potency, µM (titrated, usually from 130 µM), without a hit: at the top dose activity change, negative = inhibition, hits mostly inhibitors | 350,000 compounds, 0.28% hits; note: potency is the fitted concentration of half-maximal effect; % is set by controls: 0 for no effect and ±100 for the full control effect; nearly all actives have a fitted effect of over 40% in size
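Recombinant E. coli-expressed Tdp1 (1 nM) preincubated with compound 15 min at RT, then 5'-biotin/3'-phosphotyrosine-FITC DNA substrate (15 nM) added for 5 min. AlphaScreen beads (10 ug/ml) added, 10 min RT; tyrosine-FITC cleavage read as signal loss.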
An asterisk follows results filed as active; ? = inconclusive; nt = no result given; [ ] = dose if it differs, or a comment. Shown are actives, neighbours in structure and some others; about 16% of the full set was active somewhere. Unless noted, calls come from the whole dose curve; as a rule, active = well fitted curve in the direction sought with a large enough effect; inconclusive = small, poorly fitted or top-dose-only effect, or another doubt; inactive = no such curve, though single readings can be large; an effect the other way counts as inactive or inconclusive.

#1 CCN1C(=O)[C@H]2[C@@H](c3ccc(-c4ccc(F)cc4)c(OC)c3)N3CCCC[C@@]3(C(=O)OC)[C@H]2C1=O
#2 Cc1ccc(CNC(=O)c2ccc(C)s2)cc1
#3 COc1ccc(S(=O)(=O)N2CCC(C(=O)NCC3CCCO3)CC2)cc1Cl (stereo unspecified)
#4 CCS(=O)(=O)c1ccc2oc(SCC(=O)NC(C)C3CC4CCC3C4)nc2c1 (stereo unspecified)
#5 CCS(=O)(=O)c1ccc2oc(SCC(=O)Nc3ccc(OC)cc3OC)nc2c1
#6 COC(=O)c1ccc(CN2C(=O)NC(CC(C)C)C2=O)cc1 (stereo unspecified)
#7 CCCCCCC(=O)N1C/C=C\C(c2ccc(OC)cc2)N(Cc2ccc(F)cc2)C(=O)[C@H]1Cc1ccccc1 (stereo partly specified)
#8 COc1ccc(C2/C=C\CN(C(=O)C3CC3)[C@H](Cc3ccccc3)C(=O)N2Cc2ccc(F)cc2)cc1 (stereo partly specified)
assay / compound | 1 | 2 | 3 | 4 | 5 | 6 | 7 | 8
TDP1 cell noCPT | 16µM* | ? | 1% | 16µM* | -30% | 10% | 18µM* | 23µM*
TDP1 cell CPT | 23µM* | -15% | -4% | ? | -10% | -6% | 18µM* | 16µM*
uPA generation | -21% | 0% | -2% | 3% | -1% | 1% | ? | ?
miR-21 reporter | nt | nt | 0% | 5% | -19% | -1% | 12% | 28%
TDP1 inh | 0% | nt | nt | 6% | -1% | 5% | 2% | 4%

#9 CCCCC(=O)N1C/C=C\C(c2ccc(OC)cc2)N(Cc2ccc(F)cc2)C(=O)C1C (stereo unspecified)
#10 COc1ccc(/C=N/N2C(=O)CN(C(=O)c3ccccc3)C2c2ccc(OC)cc2)cc1 (stereo unspecified)
#11 COc1ccc(C2N(C(=O)c3ccccc3)CCN2C(=O)c2ccc(C)cc2)cc1 (stereo unspecified)
#12 COc1ccc(C2/C=C\CN(C(=O)c3ccc(C)cc3)[C@H](Cc3ccccc3)C(=O)N2Cc2ccc(F)cc2)cc1 (stereo partly specified)
#13 COc1ccc(C2/C=C\CN(C(=O)c3ccc(C)cc3)C(C)C(=O)N2Cc2ccc(F)cc2)cc1 (stereo unspecified)
#14 CCCOc1ccc(NC(=O)CC2C(=O)OCC3CCCCN32)cc1 (stereo unspecified)
#15 CCC(=O)Nc1ccc(C(=O)NNC(=O)C(c2ccccc2)c2ccccc2)cc1
#16 COc1ccc(C2/C=C\CN(C(=O)C3CC3)C(Cc3ccccc3)C(=O)N2Cc2ccc(F)cc2)cc1 (stereo unspecified)
assay / compound | 9 | 10 | 11 | 12 | 13 | 14 | 15 | 16
TDP1 cell noCPT | nt | ? | ? | 5.8µM* | nt | 2% | -23% | nt
TDP1 cell CPT | nt | -25% | 29µM* | 4.6µM* | nt | 2% | -9% | nt
uPA generation | nt | 7% | -4% | -28% | nt | 13% | 5% | nt
miR-21 reporter | nt | -2% | -7% | ? | nt | nt | -7% | nt
TDP1 inh | 11% | nt | 5% | 4% | 6% | 1% | 0% | 10%

Structural class: the entries above with two or more sulfur atoms
#4 CCS(=O)(=O)c1ccc2oc(SCC(=O)NC(C)C3CC4CCC3C4)nc2c1 (stereo unspecified)
#5 CCS(=O)(=O)c1ccc2oc(SCC(=O)Nc3ccc(OC)cc3OC)nc2c1
assay / compound | 4 | 5
TDP1 cell noCPT | 16µM* | -30%
TDP1 cell CPT | ? | -10%
uPA generation | 3% | -1%
miR-21 reporter | 5% | -19%
TDP1 inh | 6% | -1%

Reformatted: 2 of the compounds above
cpd	Molecule	TDP1 cell noCPT	TDP1 cell CPT	uPA generation	miR-21 reporter	TDP1 inh
15	CCC(=O)Nc1ccc(C(=O)NNC(=O)C(c2ccccc2)c2ccccc2)cc1	-23%	-9%	5%	-7%	0%
16	COc1ccc(C2/C=C\CN(C(=O)C3CC3)C(Cc3ccccc3)C(=O)N2Cc2ccc(F)cc2)cc1 (stereo unspecified)	nt	nt	nt	nt	10%

New compounds follow
#17 COc1ccc(C2/C=C\CC(OCc3ccccc3)CC(=O)N2Cc2cccc(F)c2)cc1 (stereo unspecified)
#18 COc1ccc(C2/C=C\CN3CCC[C@H]3C(=O)N2Cc2ccc(F)cc2)cc1 (stereo partly specified)
#19 COc1ccc([C@H]2/C=C\CN(C(=O)C3CC3)[C@@H](C)C(=O)N2Cc2ccc(F)cc2)cc1
#20 COc1ccc([C@H]2/C=C\CN(S(C)(=O)=O)[C@@H](C)C(=O)N2Cc2ccc(F)cc2)cc1
#21 CCC(=O)c1ccc(N2CCN(C(=O)c3cccc(F)c3)CC2)c(F)c1
#22 CCCCCC(=O)N1CCN(c2ccc(C(C)=O)cc2F)CC1
#23 O=C(c1ccc(F)cc1F)N1CCCN(c2nc(-c3ccccc3)ns2)CC1
#24 CCCC(=O)c1ccc(N2CCN(C(=O)c3ccccc3)CC2)c(F)c1
assay / compound | 17 | 18 | 19 | 20 | 21 | 22 | 23 | 24
TDP1 cell noCPT | 21µM* | 23µM* | 12µM* | -11% | 13µM* | 21µM* | ? | ?
TDP1 cell CPT | 18µM* | ? | 23µM* | -29% | ? | 15µM* | ? | ?
uPA generation | -23% | -4% | -5% | -5% | 3% | -24% | 20% | -6%
miR-21 reporter | nt | nt | nt | nt | 3% | -12% | -11% | 16%
TDP1 inh | 1%[56.1 µM] | 0%[56.1 µM] | nt | nt | 4% | -3% | 6% | 1%

#25 CCCC(=O)c1ccc(N2CCN(C(=O)c3ccccc3Br)CC2)c(F)c1
#26 O=C(c1ccccc1)c1ccc(N2CCN(C(=O)c3ccc(F)cc3F)CC2)c(F)c1
#27 CCC(=O)c1ccc(N2CCOCC2)c(F)c1
#28 COc1ccccc1C(=O)NCC(=O)OC(C)C(=O)N(C)C1CCCCC1 (stereo unspecified)
#29 CC(=O)c1ccc(N2CCN(S(=O)(=O)c3ccccc3)CC2)c(F)c1
#30 CCC(=O)c1ccc(N2CCN(C(=O)c3ccc(F)cc3)CC2)c(F)c1
#31 CCCC(=O)c1ccc(N2CCN(C(=O)c3ccc(Br)cc3)CC2)c(F)c1
#32 CCC(=O)c1ccc(N2CCCCC2)c(F)c1
assay / compound | 25 | 26 | 27 | 28 | 29 | 30 | 31 | 32
TDP1 cell noCPT | 13µM* | ? | -3% | 3% | -22% | 10µM* | 7.3µM* | 16%
TDP1 cell CPT | 18µM* | 23µM* | -6% | 1% | -2% | 21µM* | 23µM* | -2%
uPA generation | -6% | nt | 0% | 10% | -1% | 2% | 0% | 13%
miR-21 reporter | 9% | nt | nt | nt | 1% | 2% | 0% | 2%
TDP1 inh | -2% | nt | nt | 1% | 2% | -12% | 4% | 0%

#33 CCCC(=O)c1ccc(N2CCN(S(=O)(=O)c3ccc(C)cc3)CC2)c(F)c1
#34 CCC(=O)c1ccc(N2CCN(C(=O)c3ccc(Br)cc3)CC2)c(F)c1
#35 CC1CCN(C2=C(NS(=O)(=O)c3ccc(Cl)cc3)C(=O)c3ccccc3C2=O)CC1
#36 O=C1C(NS(=O)(=O)c2ccc(Br)cc2)=C(N2CCCCC2)C(=O)c2ccccc21
#37 CCOC(=O)C1CCCN(C2=C(NS(=O)(=O)c3ccc(Br)cc3)C(=O)c3ccccc3C2=O)C1 (stereo unspecified)
#38 CC1CCCN(C2=C(NS(=O)(=O)c3ccc(Br)cc3)C(=O)c3ccccc3C2=O)C1 (stereo unspecified)
#39 CC1CCN(C2=C(NS(=O)(=O)c3ccc(Br)cc3)C(=O)c3ccccc3C2=O)CC1
#40 CC1CCN(C2=C(NS(=O)(=O)c3ccccc3)C(=O)c3ccccc3C2=O)CC1
#41 CCOC(=O)C1CCN(C2=C(NS(=O)(=O)c3ccc(Cl)cc3)C(=O)c3ccccc3C2=O)CC1
assay / compound | 33 | 34 | 35 | 36 | 37 | 38 | 39 | 40 | 41
TDP1 cell noCPT | 7.1µM* | 10µM* | -10% | 18µM* | 16µM* | 12µM* | 18µM* | ? | ?
TDP1 cell CPT | ? | 21µM* | -22% | ? | 18µM* | ? | ? | ? | -16%
uPA generation | 2% | 4% | -1% | 1% | -8% | 1% | -27% | 6% | 0%
miR-21 reporter | 5% | -2% | -27% | -1% | 5% | -35% | -24% | 1% | -4%
TDP1 inh | 6% | -4% | 11% | 15% | 14% | nt | 11% | nt | nt

Bioassay records deposited in PubChem by National Center for Advancing Translational Sciences (NCATS).
